Reference: patent publication US4379148A, “Analgesic and anti-inflammatory composition” (priority 1981, dated 1983)

Experiments:
[1] = rat, in vivo
in vivo = conditions: mouse, po
[2] = LD50, drug alone, emorfazone 0, lethality within 7 days

SMILES | ulcer index, emorfazone 50 mg/kg [1] | ulcer index, emorfazone 100 mg/kg [1] | ulcer index, emorfazone 0 ([1]; po) [mm] | LD50 at 168 h (in vivo) [mg/kg] | LD50 at 168 h (in vivo; [2]) [mg/kg] | LD50 at 168 h (in vivo; LD50 dose obtained experimentally, with emorfazone 240, p.o., combined with emorfazone 240 mg/kg) [mg/kg]
Cc1cccc(Nc2ccccc2C(=O)O)c1C [Mefenamic acid] | 7.3 ± 1.9 | 10.2 ± 2.6 | 10.5 ± 2.7 | 610 | 1190 | 920
CCOc1c(N2CCOCC2)cnn(C)c1=O [Emorfazone, 4-ethoxy-2-methyl-5-morpholino-3(2H)-pyridazinone] | – | – | – | – | 960 | –
